# From ChEMBL document CHEMBL5058646 (2022)
# Amino acid sequences for entries named in this document (tags omitted). A change or cut given only in a name is not applied to a line headed by its entry.
# UniProt O95365: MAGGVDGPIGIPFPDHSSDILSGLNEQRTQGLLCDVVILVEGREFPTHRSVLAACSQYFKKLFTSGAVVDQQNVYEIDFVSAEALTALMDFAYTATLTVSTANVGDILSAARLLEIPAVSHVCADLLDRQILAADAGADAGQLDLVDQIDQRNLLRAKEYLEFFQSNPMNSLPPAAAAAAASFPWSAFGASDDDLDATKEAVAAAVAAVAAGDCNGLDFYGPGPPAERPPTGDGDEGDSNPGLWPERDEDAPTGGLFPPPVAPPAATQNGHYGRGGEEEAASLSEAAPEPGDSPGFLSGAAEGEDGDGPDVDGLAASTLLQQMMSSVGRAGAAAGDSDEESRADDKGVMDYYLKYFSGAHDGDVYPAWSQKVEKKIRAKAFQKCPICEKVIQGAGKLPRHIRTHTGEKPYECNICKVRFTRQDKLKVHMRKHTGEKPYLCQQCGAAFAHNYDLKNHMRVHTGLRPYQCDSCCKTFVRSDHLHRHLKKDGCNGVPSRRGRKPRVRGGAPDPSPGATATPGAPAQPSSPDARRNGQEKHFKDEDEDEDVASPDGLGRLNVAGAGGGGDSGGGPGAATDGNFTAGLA
# Legend:
# Conditions in all cases: SUD4
# [1] = target: Zinc finger and BTB domain-containing protein 7A (Homo sapiens) (UniProt O95365)
# [2] = target: T1, Protein archease (Homo sapiens) (UniProt Q8IWT0)
# T1 sequence (whole entry): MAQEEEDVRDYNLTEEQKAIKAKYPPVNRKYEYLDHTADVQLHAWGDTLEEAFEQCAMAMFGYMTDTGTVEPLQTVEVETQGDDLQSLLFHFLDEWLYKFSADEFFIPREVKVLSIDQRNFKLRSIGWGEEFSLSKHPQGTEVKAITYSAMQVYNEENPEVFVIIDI
# [3] = target: T2, Zinc finger and BTB domain-containing protein 24 (Homo sapiens) (UniProt O43167)
# T2 sequence (whole entry): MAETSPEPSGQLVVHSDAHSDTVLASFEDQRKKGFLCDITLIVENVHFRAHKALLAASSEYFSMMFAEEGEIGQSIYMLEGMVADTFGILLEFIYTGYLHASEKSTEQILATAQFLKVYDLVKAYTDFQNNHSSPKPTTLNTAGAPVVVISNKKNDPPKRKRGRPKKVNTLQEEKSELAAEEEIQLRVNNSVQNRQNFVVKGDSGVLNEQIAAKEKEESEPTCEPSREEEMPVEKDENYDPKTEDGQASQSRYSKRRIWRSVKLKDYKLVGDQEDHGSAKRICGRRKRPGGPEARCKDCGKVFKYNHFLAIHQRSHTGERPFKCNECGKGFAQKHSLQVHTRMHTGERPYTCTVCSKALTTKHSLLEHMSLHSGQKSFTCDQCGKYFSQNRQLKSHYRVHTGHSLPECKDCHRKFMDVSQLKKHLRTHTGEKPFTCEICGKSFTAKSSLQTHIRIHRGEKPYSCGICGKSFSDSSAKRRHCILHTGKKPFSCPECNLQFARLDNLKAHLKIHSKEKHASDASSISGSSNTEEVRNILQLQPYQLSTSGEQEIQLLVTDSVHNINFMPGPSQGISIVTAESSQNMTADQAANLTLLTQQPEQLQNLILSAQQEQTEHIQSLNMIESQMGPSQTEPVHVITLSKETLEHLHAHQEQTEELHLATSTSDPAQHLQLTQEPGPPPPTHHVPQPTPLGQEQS
# [4] = target: T3, Zinc finger and BTB domain-containing protein 9 (Homo sapiens) (UniProt Q96C00)
# T3 sequence (whole entry): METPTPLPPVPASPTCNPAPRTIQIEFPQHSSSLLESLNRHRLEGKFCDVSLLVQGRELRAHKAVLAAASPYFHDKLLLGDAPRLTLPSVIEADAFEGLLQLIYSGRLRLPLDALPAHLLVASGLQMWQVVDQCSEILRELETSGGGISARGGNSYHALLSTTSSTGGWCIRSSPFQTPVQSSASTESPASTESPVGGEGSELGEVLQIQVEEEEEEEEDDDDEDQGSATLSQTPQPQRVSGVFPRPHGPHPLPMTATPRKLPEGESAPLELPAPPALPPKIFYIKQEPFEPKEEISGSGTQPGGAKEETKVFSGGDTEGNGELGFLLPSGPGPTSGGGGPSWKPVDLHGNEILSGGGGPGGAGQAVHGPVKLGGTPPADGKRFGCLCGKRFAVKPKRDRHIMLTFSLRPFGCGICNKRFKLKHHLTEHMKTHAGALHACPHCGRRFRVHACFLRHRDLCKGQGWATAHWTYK
# [5] = target: T4, Transcription regulator protein BACH2 (Homo sapiens) (UniProt Q9BYV9)
# T4 sequence (whole entry): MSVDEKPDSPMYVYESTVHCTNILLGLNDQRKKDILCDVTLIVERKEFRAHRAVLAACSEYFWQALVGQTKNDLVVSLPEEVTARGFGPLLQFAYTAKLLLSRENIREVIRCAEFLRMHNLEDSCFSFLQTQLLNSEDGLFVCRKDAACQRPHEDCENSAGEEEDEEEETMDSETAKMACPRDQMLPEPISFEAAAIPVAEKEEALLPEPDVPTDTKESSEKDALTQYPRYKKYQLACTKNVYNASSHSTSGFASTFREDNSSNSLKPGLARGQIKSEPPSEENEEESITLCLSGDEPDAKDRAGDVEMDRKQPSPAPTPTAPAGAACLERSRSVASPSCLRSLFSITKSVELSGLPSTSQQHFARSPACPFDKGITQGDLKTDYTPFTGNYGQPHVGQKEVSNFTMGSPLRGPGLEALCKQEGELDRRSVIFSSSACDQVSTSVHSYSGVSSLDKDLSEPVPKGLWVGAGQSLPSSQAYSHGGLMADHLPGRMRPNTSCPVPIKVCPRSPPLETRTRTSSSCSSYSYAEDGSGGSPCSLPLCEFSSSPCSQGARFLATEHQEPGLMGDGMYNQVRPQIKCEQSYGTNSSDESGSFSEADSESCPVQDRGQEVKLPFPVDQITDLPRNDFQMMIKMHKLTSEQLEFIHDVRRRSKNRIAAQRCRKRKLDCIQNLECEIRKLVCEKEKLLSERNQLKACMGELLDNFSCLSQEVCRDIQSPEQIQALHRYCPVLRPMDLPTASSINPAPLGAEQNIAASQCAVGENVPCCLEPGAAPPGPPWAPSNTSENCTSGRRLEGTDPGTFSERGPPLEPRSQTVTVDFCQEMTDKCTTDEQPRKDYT
# [6] = target: T4, Transcription regulator protein BACH2 (Homo sapiens); remark: listed apart in the source
structure (smiles),measurement,setting,value
C[C@@H]1CN(c2ncc(Cl)c(Nc3ccc4c(c3)n(CCC(C)(C)O)c(=O)n4C)n2)C[C@H](C)C1(F)F,Normalized abundances for DMSO,[1],915
same,Normalized abundances for compound,[1],937
same,Normalized abundances for DMSO,[2],1470
same,Normalized abundances for compound,[2],1500
same,Normalized abundances for DMSO,[3],288
same,Normalized abundances for compound,[3],293
same,Normalized abundances for DMSO,[4],942
same,Normalized abundances for compound,[4],1000
same,Normalized abundances for DMSO,[5],2170
same,Normalized abundances for compound,[5],2040
same,Normalized abundances for DMSO,[6],2130
same,Normalized abundances for compound,[6],2080
